Values quoted from earlier work, collected in patent US20060246492A1 (published 2006).

System: cell lines harboring activating mutations in EGFR
Settings: rare cell lines with activating EGFR mutations vs most NSCLC cell lines; cell killing; cited from earlier work

For `COc1cc2ncnc(Nc3ccc(F)c(Cl)c3)c2cc1OCCCN1CCOCC1` [gefitinib], the enhancement in sensitivity is listed as 50- to 100 fold.
